{"source": "PubChem BioAssay AID570", "about": "(The Scripps Research Institute Molecular Screening Center, 2006)", "note": "Only a part is listed here, and it is no random draw. Activity calls are given as the source filed them.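 The calls were made as follows: active = inhibition above the mean of compound-free control plate wells plus 3 SD (cut at about 14% in these data); inactive = the rest.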", "data": [{"target": "Collagenase 3 (Homo sapiens) (UniProt P45452)", "test": "inhibition of MMP13 collagenase activity – biochemical, FRET peptide cleavage, primary screen (AID 570);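 also: 0% = DMSO wells and 100% = wells with reference MMP-13 inhibitor after basal subtraction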", "settings": "MMP-13 fTHP FRET cleavage, Mca fluorescence; at 4 µM; hits give high values", "values": [{"smiles": "COc1ccc(NC2CCN(CCc3ccccc3)CC2)c(OC)c1", "inhibition": "inactive: -5.2%"}, {"smiles": "O=C(OC1CN2CCC1CC2)C1c2ccccc2Oc2ccccc21", "note": "(configuration not stated)", "inhibition": "inactive: -1.5%"}, {"smiles": "N#CC1(Nc2ccccc2)CCN(CCc2ccccc2)CC1", "inhibition": "inactive: 0.1%"}, {"smiles": "N/C(=N\\O)c1c(N)no[n+]1[O-]", "inhibition": "inactive: 4.7%"}, {"smiles": "CCC(CO)(C(=O)OC1CN2CCC1CC2)c1ccccc1", "note": "(configuration not stated)", "inhibition": "inactive: 0.2%"}, {"smiles": "CCOc1ncccc1C(=O)NCC1(N2CCOCC2)CCCCC1", "inhibition": "inactive: -8.9%"}, {"smiles": "Fc1ccccc1NC1CCN(Cc2ccccc2)CC1", "inhibition": "inactive: -8.2%"}]}]}
